# scFv variants of Ab-14 (light chain) against a SARS-CoV-2 spike peptide

Target peptide (SARS-CoV-2 spike, HR2 region): PDVDLGDISGINAS

Ab-14 is the parent antibody, in scFv form: VH, then three GGGGS repeats, then VL. The heavy chain is unchanged in all variants.
VH: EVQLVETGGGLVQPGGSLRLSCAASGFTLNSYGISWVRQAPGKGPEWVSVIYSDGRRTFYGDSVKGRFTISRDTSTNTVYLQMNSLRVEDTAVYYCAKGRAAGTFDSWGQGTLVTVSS
VL: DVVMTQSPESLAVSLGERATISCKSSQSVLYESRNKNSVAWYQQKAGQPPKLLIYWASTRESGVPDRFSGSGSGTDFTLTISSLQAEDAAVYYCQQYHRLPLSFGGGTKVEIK

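These sequences belong to a second round, designed from the earlier measurements on random variants of the parent. Their group label is 14L_GP_Gibbs (GP: Gaussian process model; Gibbs: Gibbs sampling; a sequence that several methods proposed may carry one label only). The scFvs were displayed on barcoded MATa yeast, the peptide on MATalpha yeast. Pairs that bind mate more often; barcode pairs of the diploids are counted by sequencing. The ratio of observed to expected reads was calibrated, replicate by replicate, on BCL2-family standards whose Kd was known from biolayer interferometry. There are six technical replicates.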

Substitutions are numbered in sequence along the VL above, starting at 1 (not Kabat).
Values are log10 of the apparent Kd in nM; lower means stronger binding.
The mean shown is taken over the replicates in which the pair was detected.
An entry "n.d." has no value in the source: the pair was not observed among the diploids in that replicate. This suggests poor binding but is not conclusive.

changes | log10 Kd (nM) by replicate | mean log10 Kd (nM) | control signals
S25L/S26H/V29W/E32G/K36A/W56N/T59Q/S62E | -0.16 / -0.49 / -0.54 / -0.63 / -0.47 / -0.35 | -0.44 | 2/18 (3.11)
S25L/S28W/V29Y/L30W/W56M/S62V/H98W | n.d. / n.d. / n.d. / n.d. / n.d. / n.d. | n.d. | 0/18
S25F/S28Q/S33D/N35Q/K36A/W56N/T59Q | 0.20 / 0.10 / 0.21 / -0.21 / 0.04 / 0.37 | 0.12 | 2/18 (3.13)
S25L/S26W/Q27M/Y31G/K36S/S38A/W56S/S62L | 0.97 / 1.31 / 1.34 / 1.41 / 0.95 / 1.19 | 1.19 | 0/18
S25F/S28M/V29D/K36G/S38N/W56D/E61S | -0.31 / -0.41 / -0.33 / -0.37 / -0.26 / -0.19 | -0.31 | 2/18 (2.61)
K24H/S25L/V29W/L30E/Y31G/S33E/W56S/S62Q | 0.44 / 0.85 / 0.50 / 0.71 / 0.92 / 0.97 | 0.73 | 1/18 (2.72)
S25M/S26L/V29H/W56N/S62T | 0.51 / 0.38 / 0.18 / 0.23 / 0.47 / 0.47 | 0.37 | 4/18 (2.91)
S25L/V29M/W56H/T59L/E61L/Q96C | 1.79 / 2.66 / 2.12 / 2.51 / 2.19 / 3.24 | 2.42 | 1/18 (2.89)
S25L/S26M/Q27W/V29M/L30Q/K36Q/W56H/T59Y | 1.08 / 0.46 / 0.61 / 2.22 / 0.66 / 1.53 | 1.10 | 2/18 (1.27)
S25V/S26D/Q27S/S28A/L30N/S33Q/W56D/T59Q | -0.16 / -0.84 / -0.64 / -0.70 / 1.14 / -0.58 | -0.30 | 0/18
S25A/S26Q/V29W/L30G/N37W/W56N/S62K | 0.27 / 0.18 / 0.20 / -0.04 / 0.20 / 0.06 | 0.14 | 1/18 (2.14)
S25L/S26Q/Q27L/V29M/L30P/N35M/W56Q/T59V | -0.42 / 0.31 / -0.23 / 0.10 / 0.57 / 0.11 | 0.07 | 1/18 (1.34)
S25L/S26Q/Q27F/V29A/Y31Q/E32L/S33Q/W56S | 0.11 / 0.26 / -0.28 / -0.02 / 0.00 / 0.00 | 0.01 | 2/18 (2.85)
S25V/S28L/V29G/E32G/S33Q/K36A/W56N/S62D | -0.22 / -0.36 / -0.58 / -0.45 / -0.43 / -0.36 | -0.40 | 1/18 (2.68)
S25L/S26P/V29D/S33G/K36S/W56N/E61F | 0.06 / -0.09 / -0.25 / -0.14 / -0.20 / -0.05 | -0.11 | 0/18
S25W/S26Q/V29E/Y31Q/E32S/W56N/T59E | 0.34 / 0.05 / -0.26 / 0.31 / 0.08 / 0.53 | 0.18 | 2/18 (2.17)
S25L/S26Q/S28A/W56Q/E61S/S62D/Q96C | 0.24 / 0.54 / 0.53 / 0.58 / 0.32 / 0.56 | 0.46 | 2/18 (2.87)
S25L/S26Q/V29W/L30E/K36S/S38N/W56Q/E61M | -0.35 / -0.32 / -0.55 / -0.44 / -0.48 / -0.23 | -0.40 | 1/18 (1.83)
S25L/S26D/S28L/L30D/Y31E/S38A/W56E | 0.65 / 0.66 / 0.58 / 0.17 / 0.42 / 0.67 | 0.52 | 1/18 (2.90)
S25L/S26Q/L30E/S33A/K36Q/W56S/E61L/S62D | 0.45 / 0.47 / 0.28 / 0.20 / -0.19 / 0.38 | 0.27 | 1/18 (2.66)
S25L/S26E/V29Q/E32G/W56N/T59E/S62R | 0.01 / -0.37 / -0.41 / -0.52 / -0.33 / -0.31 | -0.32 | 1/18 (2.53)
S25L/S26Y/Q27F/V29E/L30E/W56S/T59Q | 0.05 / -0.06 / -0.20 / 0.02 / -0.47 / 0.03 | -0.11 | 1/18 (2.78)
S25I/S26D/V29E/Y31G/R34V/W56N/E61M/S62E | 0.01 / 0.10 / -0.07 / 0.07 / -0.24 / 0.01 | -0.02 | 0/18
S25Q/S26Q/S28L/L30W/S33Q/W56E/A57G | -0.20 / -0.14 / -0.23 / -0.37 / -0.30 / 0.26 | -0.16 | 1/18 (2.16)
S25C/S26A/V29Q/L30D/S38A/W56N/T59Q | 0.94 / 0.62 / 0.44 / 0.95 / 0.99 / 0.67 | 0.77 | 1/18 (1.42)
S25L/S26M/S28W/V29Q/S38N/W56S/S62M | 0.87 / 0.62 / 0.53 / 0.62 / 0.70 / 0.88 | 0.70 | 1/18 (2.43)
S25V/Q27L/Y31L/E32W/K36V/S38A/W56E | 0.27 / 0.25 / -0.20 / -0.06 / 0.25 / 0.23 | 0.12 | 1/18 (2.09)
S25V/Q27P/S33D/K36C/S38A/W56Q/T59Q | 0.46 / 0.13 / 0.24 / 0.27 / 0.26 / 0.40 | 0.29 | 0/18
S25M/S28E/L30W/Y31L/K36V/W56M/T59C/E61C/S62D | 1.72 / 1.17 / 1.77 / 1.94 / 2.02 / 2.02 | 1.78 | 1/18 (1.63)
S25F/S26E/Q27P/V29W/K36V/W56N/E61S/S62Q | -0.21 / -0.21 / -0.26 / -0.17 / -0.25 / 0.00 | -0.18 | 0/18
S25Q/V29Y/L30G/Y31G/W56H/T59K | 1.42 / 1.48 / 2.48 / 1.88 / 1.51 / 1.62 | 1.73 | 2/18 (2.81)
S25F/S28Q/V29N/N35M/S38P/W56N/T59Q/S62Q | 0.89 / 0.81 / 0.69 / 0.80 / 1.00 / 1.27 | 0.91 | 2/18 (3.31)
S25L/S26M/Q27P/S28F/V29W/L30E/W56E | 0.61 / 0.25 / 0.40 / 0.33 / 0.28 / 0.15 | 0.34 | 0/18
S25L/V29A/L30P/S33E/N35C/K36F/W56H/T59Q | 1.64 / 1.71 / 0.92 / 0.88 / 1.23 / 1.33 | 1.28 | 0/18
S25V/V29E/L30W/N35M/W56N/T59Y/S62Q | 0.34 / 0.02 / -0.06 / -0.05 / -0.01 / 0.32 | 0.09 | 1/18 (2.10)
S25L/Q27T/V29D/K36V/S38A/W56E/E61M/S62D | -0.16 / -0.55 / 0.08 / -0.46 / -0.37 / -0.02 | -0.25 | 0/18
S25L/S26M/S28L/V29G/L30D/W56Q/T59Q/S62Q | -0.39 / -0.48 / -0.49 / -0.61 / -0.44 / -0.32 | -0.46 | 1/18 (3.56)
S25V/Q27V/S28G/V29G/S33Q/N35Q/W56N | 0.22 / 0.12 / 0.68 / 0.42 / -0.26 / 0.49 | 0.28 | 0/18

The last 4 entries again:

changes	log10 Kd (nM) by replicate	mean log10 Kd (nM)	control signals
S25V/V29E/L30W/N35M/W56N/T59Y/S62Q	0.34 / 0.02 / -0.06 / -0.05 / -0.01 / 0.32	0.09	1/18 (2.10)
S25L/Q27T/V29D/K36V/S38A/W56E/E61M/S62D	-0.16 / -0.55 / 0.08 / -0.46 / -0.37 / -0.02	-0.25	0/18
S25L/S26M/S28L/V29G/L30D/W56Q/T59Q/S62Q	-0.39 / -0.48 / -0.49 / -0.61 / -0.44 / -0.32	-0.46	1/18 (3.56)
S25V/Q27V/S28G/V29G/S33Q/N35Q/W56N	0.22 / 0.12 / 0.68 / 0.42 / -0.26 / 0.49	0.28	0/18

A sequence measured in both rounds can read differently, since the two assays cover different ranges.
Background: pairings of all light chain designs with three empty control strains gave a value in 4% of cases (median 2.64, 5th percentile 1.59). Values in that range, when seen in few replicates, are hard to tell from nonspecific mating. The control count says in how many pairings with the empty strains this scFv gave a signal, with their mean in brackets.
The authors' rule: three or more of the six replicates give a measured affinity, fewer mean a poor binder.

Source: Li et al. 2023 (doi:10.1038/s41467-023-39022-2), MIT Lincoln Laboratory and A-Alpha Bio; data file from the FLAb repository.